Data from patent US7718768B2, “Biologically active peptide [sequence]” (CMS Peptides Patent Holding Company Limited, priority 2001, dated 2010).

How the values were obtained:
T lymphocyte [1] = test: T lymphocyte transformation test (ConA, MTT) on spleen cells of treated mice; format: in vivo, BALB/c mice; design: key: OD of assay wells divided by OD of control wells; conditions: IFN-γ and IL-2 groups 3×10^5 IU/kg/day, X ± SD
Protocol: The above substances were all dissolved in 0.5 ml saline and injected intraperitoneal (i.p.) for 15 continuous days, once per day.
The BALB/c mice were randomly divided into the peptide, IFN, IL-2, and saline groups. Ten mice per group. The day after the last test substance administration, the mice were sacrificed by cervical dislocation. The spleen was isolated aseptically and manually dispersed in cold D-Hank's solution using an injection needle. The dispersed cell suspension was further sieved through a 100 gauge 150 μm diameter stainless steel sieve. After centrifugation at 200 g for 10 minutes, the supernatant was discarded. The cell pellet was re-suspended in 10 volume of Tris-NH4Cl buffer and then kept standing still for 10 minutes at room temperature. The suspended cells were collected by centrifugation at 150 g for 10 minutes. The cells were washed 2-4 times with cold D-Hank's solution by re-suspending and collecting by centrifugation with condition as described above. The washed cells were then diluted to the desired cell densities by RPMI-1640 culture medium, containing 10% fetal bovine serum.
Spleen cells of density 1×10^6/ml were placed onto a 96 wells cell culture plate, 100 μl/well, three parallel wells each of the assay sample and control sample per mouse. To the assay wells, 100 μl/well ConA of 100 μg/ml in RPMI-1640 was added, and 100 μl/well plain RPMI-1640 was used for the controls. The cells were incubated for 66 hrs at 37° C., 5% CO2. The cells were then pelleted by centrifugation at 150 g for 10 minutes. The supernatant was collected and stored at −20° C. for cytokines IL-2 and IFN determination.
50 μl/well MTT of 1 mg/ml in RPMI-1640 was added to the cell pellet and the cells re-suspended by shaking for 2 minutes. The incubation was continued for 4 hours. The supernatant was discarded after centrifugation at 150 g for 10 minutes. 120 μl 40 mM HCl-2-propanol was added to the cell pellet and shaken for 3 minutes. to obtain OD570nm of each well referenced at 630 nm. An ELISA reader was used
Each mouse formed three assay wells and three control wells. The Stimulation Index (SI) of each mouse was obtained by first deriving the average OD of the three parallel wells, then dividing the value of the assay wells by the control wells.

T lymphocyte [2] = test system: T lymphocyte; design: species or system BALB/c mice; conditions: mouse, in vivo, ip
mononuclear phagocyte [3] = test: carbon particle clearance test, phagocytotic activity of mononuclear phagocyte; format: in vivo, BALB/c mice; design: key: α = (cube root of K)×(body weight ÷ liver+spleen weight); conditions: IFN-γ and IL-2 groups 3×10^5 IU/kg/day, X ± SD
Protocol: On the next day after the last test substance administration (day 16), the mice were injected with […] body weight India ink (5 times dilution with normal saline) from the tail vein.
One minute and five minutes after Indian ink injection, 20 μl blood was obtained from the eye can thus with a heparinized tubing. The blood was mixed with 2 ml 0.1% w/v Na2CO3 and then OD680nm obtained. The outline clear index K was calculated by the following formula: K=(lgA1−lgA2)÷(t2−t1) Key: A1: OD680nm at first minute A2: OD680nm at fifth minute t2: 5 minutes […]
One day after the last test substance administration (day 16), the liver, spleen, and thymus gland were separated and blotted dry with filter paper and weighed. The phagocytosis index α was calculated as below: α=(^3√K)(W÷WLS) key: W: body weight WLS: weight of liver plus spleen Thymus gland index(%)=(thymus weight/body weight)×100% Spleen index(%)=(spleen weight/body weight)×100%

mononuclear phagocyte [4] = test: phagocytosis index in mice with transplanted S180 sarcoma; format: in vivo, BALB/c mice; conditions: 3 × 10^5 IU/kg i.p. once per day
Protocol: Intraperitoneal injection, once per day. […] Treatment of all groups with testing substance lasted for 30 days or until the animal died unless otherwise specified.
Stock S180 sarcoma cells were incubated in DMEM/F12 medium supplemented with 10% fetal bovine serum, 37° C., 5% CO2 for 72 hrs, then washed 3-4 times with Hank's solution at room temperature. Adjust the cell concentration to 1-2×10^9 per liter with Hank's solution. […] The mice were killed by cervical vertebra dislocation. Vigorously growing and non-disrupted tumor masses were harvested and washed clean with sterile saline. The tissue was dispersed in saline to a homogenous cell suspension, in a ratio of 1 g tissue to 4 ml saline. The sarcoma bearing mice model was prepared with an injection of 0.2 ml cell suspension through the armpit. Administration of test substance treatment started as described in section Method 1.
2.1 The effect of peptides on the phagocytotic function of mononuclear phagocyte in mice with S180 sarcoma was analyzed by injecting mice from the tail vein with 0.1 ml/10 g body weight of Indian ink (1:5 dilution with normal saline) on the second day after the last test substance administration. […] The outline clear index K was calculated by the following formula: K=(lgA1−lgA2)÷(t2−t1) […]
1. The Phagocytosis Index α was Calculated as Below: α=(^3√K)×(W÷WLS)

T lymphocyte [5] = test: T lymphocyte transformation in mice with ascitic fluid type liver cancer H22; format: in vivo, BALB/c mice; conditions: 3 × 10^5 IU/kg i.p. once per day
Protocol: Healthy BALB/c mice were randomized into peptide group, rmIFN-γ group, rhIL-2 group, and saline group, 15 mice per group, and prepared into H22 carrying mice model as described in section Method 3. After implantation of the cancer cells, the test substances were administered for 15 days, the mice were killed by cervical dislocation. The spleen was isolated aseptically and manually dispersed in cold D-Hank's solution using an injection needle. The dispersed cell suspension was further sieved through a 100-gauge 150 μm diameter stainless steel sieve. After centrifugation at 200 g for 10 minutes, the supernatant was discarded. The cell pellet was re-suspended in 10 volume of Tris-NH4Cl buffer and then kept standing still for 10 minutes at room temperature. The suspended cells were collected by centrifugation at 150 g for 10 minutes. The cells were washed 2-4 times with cold D-Hank's solution by re-suspending and collecting by centrifugation with condition as described above. The washed cells were then diluted to the desired cell densities by RPMI-1640 culture medium, containing 10% fetal bovine serum. […]
50 μl/well MTT of 1 mg/ml in RPMI-1640 was added to the cell pellet and the cells re-suspended by shaking for 2 minutes. […] Use an ELISA reader to obtain OD570nm of each well referenced at 630 nm. […]

[6] = peptide 0.5 μg/kg/day i.p. 15 days
[7] = peptide 5 μg/kg/day i.p. 15 days
[8] = peptide 50 μg/kg/day i.p. 15 days
[9] = peptide 500 μg/kg/day i.p. 15 days

## IL-2: recombinant human interleukin-2, Shanghai Huaxin Biotech Inc.; positive control immunostimulant
T lymphocyte [1]; [6]
  stimulation index (T lymphocyte transformation): 1.6 ± 0.1
T lymphocyte [1]; [7]
  stimulation index (T lymphocyte transformation): 1.6 ± 0.1
T lymphocyte [1]; [8]
  stimulation index (T lymphocyte transformation): 1.8 ± 0.2
T lymphocyte [1]; [9]
  stimulation index (T lymphocyte transformation): 1.7 ± 0.2
T lymphocyte [2]
  activity of T lymphocyte in secreting IFN: 120 ± 13 IU and 113 ± 17 IU and 105 ± 14 IU and 107 ± 13 IU
Mononuclear phagocyte [3]; [6]
  phagocytotic index: 5.7 ± 0.8
Mononuclear phagocyte [3]; [7]
  phagocytotic index: 5.7 ± 0.8
Mononuclear phagocyte [3]; [8]
  phagocytotic index: 5.7 ± 0.8
Mononuclear phagocyte [3]; [9]
  phagocytotic index: 5.7 ± 0.8
Mononuclear phagocyte [4]
  Phagocytosis index: 6.96 ± 1.37
T lymphocyte [5]
  Stimulation index: 1.46 ± 0.21

Values joined by “and” are separate entries in the source; they are usually repeats but may differ in a detail not shown here. Identical values can stand only once.
